One assay deals with Histamine H3 receptor (Homo sapiens, UniProt Q9Y5N1). Description: Antagonist activity at human recombinant 5HT3 receptor assessed as inhibition of RAMH-induced [35S]GTPgammaS binding. The format is functional. A general note: GTPγS is a poorly hydrolysed GTP analogue; its binding reports G protein activation.
The target in assay [1] is Histamine H3 receptor (Rattus norvegicus) (UniProt Q9QYN8). Description: Antagonist activity at rat recombinant 5HT3 receptor assessed as inhibition of RAMH-induced [35S]GTPgammaS binding. The format is functional.
For assay [2], the species on record is Homo sapiens. Description: Selectivity ratio of Ki for human histamine H1 receptor to Ki for human histamine H3 receptor.
The species named for assay [3] is Homo sapiens. As to the kind of experiment: Selectivity ratio of Ki for human histamine H2 receptor to Ki for human histamine H3 receptor.
The species named for assay [4] is Homo sapiens. As to the kind of experiment: Selectivity ratio of Ki for human histamine H4 receptor to Ki for human histamine H3 receptor.

Each structure is given as a SMILES string. Bounds are passed on as bounds.

Regarding `C[C@@H]1CCCN1CCCOc1ccc(-c2cnn(-c3ccccn3)c(=O)c2)cc1`, the Kb (on Histamine H3 receptor; in assay [1]) was 0.3 nM throughout. The Selectivity ratio in the assay listed under Homo sapiens [2], in the assay filed under Homo sapiens [3] and in the assay listed under Homo sapiens [4] was greater than 1000 each time.

One may read the Kb as the affinity of an antagonist, worked out from how it opposes an agonist.
